Laboratory results reported in patent publication US20120309704A1, “COMPOSITIONS FOR TREATMENT OF CHEMORESISTANT AND/OR POTENTIALLY CHEMORESISTANT LEUKAEMIAS” (priority 2009, published 2012).

Tested on: 697 cells
Experiment: Annexin V/propidium iodide apoptosis of 697 cells cultured in the absence or presence of marrow stromal cells (MSC)
Type: cell-based, human

## COc1cccc2c1C(=O)c1c(O)c3c(c(O)c1C2=O)C[C@@](O)(C(=O)CO)C[C@@H]3O[C@H]1C[C@H](N)[C@H](O)[C@H](C)O1 [doxorubicin]
  proapototic effect of the drug when leukaemic cells are cultured in the presence of bone marrow stromal cells (MSC): almost completely abolished
